From patent publication US20190010203A1 (ADEPTHERA, published 2019)

Sequences of proteins named here, by UniProt entry; tags and fusion partners are left off. Residues count along the entry.
UniProt Q16602, 23-461 limits assumed, chain 1 of 2: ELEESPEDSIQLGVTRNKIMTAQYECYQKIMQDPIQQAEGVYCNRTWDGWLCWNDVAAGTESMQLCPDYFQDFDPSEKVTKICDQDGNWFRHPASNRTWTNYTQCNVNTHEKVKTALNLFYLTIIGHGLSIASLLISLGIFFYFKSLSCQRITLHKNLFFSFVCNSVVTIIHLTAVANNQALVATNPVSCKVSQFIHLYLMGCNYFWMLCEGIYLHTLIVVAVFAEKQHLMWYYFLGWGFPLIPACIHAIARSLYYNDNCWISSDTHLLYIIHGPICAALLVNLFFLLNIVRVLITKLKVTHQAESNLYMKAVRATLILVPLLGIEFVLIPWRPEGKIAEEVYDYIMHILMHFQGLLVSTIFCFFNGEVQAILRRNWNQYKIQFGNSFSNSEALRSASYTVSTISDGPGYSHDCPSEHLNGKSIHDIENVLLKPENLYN
CLR/RAMP3 receptor, UniProt O60896, 24-148 limits assumed, chain 2 of 2: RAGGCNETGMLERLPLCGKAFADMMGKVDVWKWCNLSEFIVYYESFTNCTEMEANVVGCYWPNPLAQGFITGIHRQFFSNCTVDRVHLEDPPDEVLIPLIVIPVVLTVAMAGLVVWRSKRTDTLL

Biological target: CLR/RAMP3 receptor (UniProt Q16602 23-461; O60896 24-148, limits assumed)
Assay: cell-based or functional assay

## KGCRFGTCTVQKLAHQIYQFTDKDKDNSAPVDPSSPHSY (N-terminal miniPEG; palmitoyl on Lys 1 side chain, K(PAL); C-terminal amide) [SEQ ID NO: 28]
  EC50 (nM), CLR/RAMP3 cAMP assay: 0.06 nM
